# Results as given in patent US5304549A, “Amino acid derivatives” (Hoffmann-La Roche Inc., priority 1991, dated 1994).
# Molecular target: T1, collagenase obtained from a culture of human synovial fibroblasts (Homo sapiens, UniProt P03956)
# T1 construct: endogenous in cells; host or cells: human synovial fibroblasts in culture (conditioned medium)
# T1 sequence (P03956 100-469): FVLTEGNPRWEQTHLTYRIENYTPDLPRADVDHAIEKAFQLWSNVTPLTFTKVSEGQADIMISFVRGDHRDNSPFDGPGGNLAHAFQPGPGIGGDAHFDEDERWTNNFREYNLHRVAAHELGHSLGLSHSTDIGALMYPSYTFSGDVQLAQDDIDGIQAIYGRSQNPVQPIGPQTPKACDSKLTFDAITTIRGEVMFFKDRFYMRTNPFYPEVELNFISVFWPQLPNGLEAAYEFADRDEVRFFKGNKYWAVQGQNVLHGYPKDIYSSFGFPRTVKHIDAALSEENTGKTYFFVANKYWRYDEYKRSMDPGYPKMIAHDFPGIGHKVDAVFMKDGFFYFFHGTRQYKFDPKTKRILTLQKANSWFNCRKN
# Test: in vitro collagenase inhibiting activity (14C-acetylated collagen type I from rat tail tendons as substrate, microtitre plate assay)
# Assay type: biochemical
structure (smiles),measurement,value
"CNC(=O)[C@@H](NC(=O)[C@H](CC(C)C)C(CN1C(=O)c2ccccc2C1=O)C(=O)NO)C(C)(C)C (single isomer, unassigned) [Compound E, N^2-[2(R)-[1(R or S)-(hydroxycarbamoyl)-2-phthalimidoethyl]-4-methylvaleryl]-N^1,3-dimethyl-L-valinamide]",pIC50,9.30

# pIC50: −log10 of the molar value.
